Measured values reported in patent publication US20080269347A1, “EPINEPHRINE FORMULATIONS” (Azopharma, Inc., priority 2006, published 2008).
Read-outs that look alike come from different tables or passages of the source.

EDTA
stability of the formulation (epinephrine remaining) (0 h): 100
stability of the formulation (epinephrine remaining) (168 h): 98.9
stability of the formulation (epinephrine remaining) (336 h): 99.3
stability of the formulation (epinephrine remaining) (672 h): 96.5
